Here are results for one compound from publication PMC3474356 (Chemistry & biology, 2011).

The assay relates to pfCYT bc1. The format is biochemical. The note with it: ratio of IC50 hsCYT bc1 / pfCYT bc1.

For the compound `O=C1C(O)=C([C@H]2CC[C@H](c3ccc(Cl)cc3)CC2)C(=O)c2ccccc21` [atovaquone], the “selectivity pfCYT bc1 compared to hsCYTbc1” value turned out to be 1750 fold.
